Assay results reported in article PMC8682755.

Biological target: recombinant CMG helicase (Cdc45, Mcm2-7, GINS) (not stated | X. laevis) (UniProt Q9YHZ6)

Mcm7 polyubiquitylation in a reconstituted system with purified proteins (neddylated rCRL2^Lrr1 30 nM, rCMG 15 nM, E1, Ube2D2, Ube2R1, ubiquitin, ATP; western blot) (ubiquitin moieties): < 7
Substance: recombinant Xenopus laevis CRL2^Lrr1 (Cul2, Rbx1, Elongin B, Elongin C, Lrr1) (complex)
